# Reference: patent US20240287457A1, “COMPOSITIONS AND CELL CULTURE MEDIA FOR INCREASING NEUTROPHIL LIFESPAN” (THE CHILDREN'S MEDICAL CENTER CORPORATION, priority 2021, published 2024)
# Where a SMILES comes first, the peptide text is derived from it. The star is where a group is joined. Cbz = O=C(OCc1ccccc1)*; CH2F = FC*
# Experiments:
# murine neutrophils = test: In vitro neutrophil death / survival of cultured murine neutrophils; assay type: cell-based, mouse
# human neutrophils = test: In vitro neutrophil death / survival of cultured human neutrophils
Compound,Neutrophil survival after 3 days - normalized to fresh neutrophils (100) (murine neutrophils),Neutrophil survival after 3 days - normalized to fresh neutrophils (100) (human neutrophils)
COC(=O)C[C@H](NC(=O)[C@H](C)NC(=O)[C@@H](NC(=O)[C@H](Cc1ccc(O)cc1)NC(=O)OCc1ccccc1)C(C)C)C(=O)CF [Z-YVAD-FMK],<10,<25
CC(=O)N[C@@H](CC(C)C)C(=O)N[C@@H](CCC(=O)O)C(=O)N[C@@H](Cc1cnc[nH]1)C(=O)N[C@H](C=O)CC(=O)O [Ac-LEHD-CHO] (Ac-LEHD-aldehyde),<10,<25
"c1ccc2c(c1)[I+]c1ccccc1-2 [DPI, Diphenyleneiodonium chloride]",<10,<25
CC[C@H](C)[C@H](NC(=O)[C@H](CCC(=O)OC)NC(=O)[C@@H](NC(=O)OCc1ccccc1)C(C)C)C(=O)N[C@@H](CC(=O)OC)C(=O)CF [Z-VEID-FMK] (Cbz-VE(OMe)ID(OMe)-CH2F),,<25
CC[C@H](C)[C@H](NC(=O)OCc1ccccc1)C(=O)N[C@@H](CCC(=O)OC)C(=O)N[C@H](C(=O)N[C@@H](CC(=O)OC)C(=O)CF)[C@@H](C)O [Z-IETD-FMK] (Cbz-IE(OMe)TD(OMe)-CH2F),<10,<25
